In the library only some 0.7% were active in any assay of this set; here they are far more common.
GIV Gai3 FP – blocks GIV peptide binding to rat Galpha-i3. P08753. Galpha-i3/FITC-GIV peptide fluorescence polarization, 90 min; stronger effect = lower value; scaled: aluminum fluoride 0%, vehicle 100%. percent of control (FP), % (test concentration not listed). actives 0.42% (n = 210,000). AID 1224905;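 active means replicate mean at 85% of control or lower, very high polarization wells dropped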;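 further: wells of about 15 µL received 100 nL stock; the first replicate is given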
HCMV UL50-53 inh – cytomegalovirus nuclear egress complex inhibition | 190,000 tested, 0.15% active | HTRF UL50-UL53 interaction, normalized percent inhibition | inhibition, % (concentration not given with the values); in the data active means inhibition above about 27%, passing the limit was not always enough
Sa growth inh – inhibitors of Staphylococcus aureus growth at 42 °C; relative growth, % (no concentration beside the values); 170,000 tested, 0.53% active; AID 720641; S. aureus RN4220 growth, OD600, 20 h; hits give low values;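 active means relative growth at most 50% at the other temperature and 20+ points below 30 °C, or under 10% at both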
GIV-Gai FP conf – confirmation of inhibitors of GIV binding to rat Galpha-i3; AID 1259350; shares compounds with GIV Gai3 FP; FITC-GIV peptide binding to Galphai3, fluorescence polarization; hits give low values; 580 tested, 38% active; fluorescence polarization, mP at 100 µM;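 active means inhibition score of 15 or more, meaning 100 minus mean polarization as percent of control over three replicates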;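 further: lower mP means peptide displaced from Galphai3 so more inhibition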
GIV-Gai AS conf – confirmation of inhibitors of GIV binding to human Galpha-i3 | 580 tested, 39% active | AlphaScreen counts at 100 µM | AlphaScreen Galphai3-GIV binding, purified proteins, 90 min; hits give low values | shares compounds with GIV Gai3 FP;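 active means inhibition score at or above a set limit, where the score is 100 minus the three-replicate mean percent of control signal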
* hit, by the source's call; . = not tested or not shown.

| No. | mol | GIV Gai3 FP | HCMV UL50-53 inh | Sa growth inh |
| --- | --- | --- | --- | --- |
| 1 | COc1ccc(Nc2nc3ccccc3nc2NS(=O)(=O)c2ccc(C)cc2)c(OC)c1 | 38.8* | -20.8 | 106.8 |
| 2 | COc1ccc2nc(NS(=O)(=O)c3ccc(C)cc3)c(Nc3cc(Cl)ccc3OC)nc2c1 | 229.6 | -10.3 | 99.8 |
| 3 | Cc1ccc(C2(c3ccc(C)cc3)CC2C(=O)Nc2cccc(C)c2)cc1 (stereo not drawn) | 112.5 | . | . |
| 4 | CCN(CC)c1ccc(NC(C)=O)c(C)c1 | 101.9 | -13.3 | 106.2 |
| 5 | CCN(CC)c1ccc(N)c(C)c1 | 41.3* | -64.2 | 10.8 |
| 6 | CC1(C)CC(=O)c2cnc3c(C(=O)NCc4ccccn4)cnn3c2C1 | 99.9 | . | . |
| 7 | CCOc1cccc(=O)c2c(C)oc(C)c12 | 92.0 | -56.8 | 92.3 |
| 8 | CCOc1cccc(=[O+]CC)c2c(C)oc(C)c12 | 68.1* | . | 87.8 |

| No. | GIV-Gai FP conf | GIV-Gai AS conf |
| --- | --- | --- |
| 1 | 81 | 33344 |
| 2 | . | . |
| 3 | . | . |
| 4 | . | . |
| 5 | 73.8 | 1482* |
| 6 | . | . |
| 7 | . | . |
| 8 | 44.2* | 2733* |

The results go on.
| No. | mol | GIV Gai3 FP | HCMV UL50-53 inh | Sa growth inh |
| --- | --- | --- | --- | --- |
| 9 | O=C(CC1CCCC1)NCc1c(-c2ccc(F)cc2)nc2n1CCS2 | 96.3 | . | . |
| 10 | CCCCSc1nnc2n(Cc3ccc(F)cc3)c(=O)c3sccc3n12 | 98.6 | -8.9 | . |
| 11 | CC(C)CCNC(=O)c1cc(-c2ccc(Br)s2)nc2ccccc12 | 90.9 | -7.3 | 111.9 |
| 12 | CCCCN(C)CCCNC(=O)c1cc(-c2ccc(Br)s2)nc2ccccc12 | 105.9 | -92.7 | 97.8 |
| 13 | CC(C)c1cc(-c2nnc3sc(-c4ccncc4)nn23)n[nH]1 | 85.2* | -23.2 | . |
| 14 | COc1ccccc1-c1nn2c(-c3cc(C(C)C)[nH]n3)nnc2s1 | 102.4 | 0.4 | . |
| 15 | Cc1nc(N)[nH]c(=O)c1CC(=O)O | 111.8 | . | 89.9 |
| 16 | O=C(O)C1=CC(=C(c2ccc(O)c(C(=O)O)c2)c2ccc(O)c(C(=O)O)c2)C=CC1=O | -18.7* | 122.8* | . |

| No. | GIV-Gai FP conf | GIV-Gai AS conf |
| --- | --- | --- |
| 9 | . | . |
| 10 | . | . |
| 11 | 86.2 | 34180 |
| 12 | . | . |
| 13 | 63.1 | 12549* |
| 14 | . | . |
| 15 | . | . |
| 16 | 16.7* | 2586* |

(list continues)
| No. | mol | GIV Gai3 FP | HCMV UL50-53 inh | Sa growth inh |
| --- | --- | --- | --- | --- |
| 17 | Nc1ccc(O)c(C(=O)O)c1 | 90.7 | -68.0 | 80.5 |
| 18 | CCOC(=O)c1[nH]c2sc(C)c(C)c2c1N | 82.6* | -13.6 | 83.0 |
| 19 | COC(=O)c1[nH]c2sc3c(c2c1N)CCCC3 | 20.1* | -1.5 | 69.2 |
| 20 | COC(=O)c1c(N)sc2c1CCCC2 | 106.6 | -8.1 | 108.6 |
| 21 | CCOC(=O)c1c(N)sc(C)c1C | . | -13.3 | . |
| 22 | Clc1cccc2c(N3CCCCCC3)cnnc12 | 82.6* | -104.6 | 112.2 |
| 23 | CC1CC(C)CN(c2cnnc3c(Cl)cccc23)C1 (stereo not drawn) | 104.7 | -91.5 | 82.0 |
| 24 | CCCCc1ccc(-c2c3c(c(-c4ccccc4)n2-c2ccc(Br)cc2)C(=O)c2ccccc2C3=O)cc1 | 125.6 | . | . |

| No. | GIV-Gai FP conf | GIV-Gai AS conf |
| --- | --- | --- |
| 17 | . | . |
| 18 | 72.7 | 8984* |
| 19 | 38.9* | 8300* |
| 20 | . | . |
| 21 | . | . |
| 22 | 72.3 | 33684 |
| 23 | . | . |
| 24 | . | . |

Quoted from above, entries 17 to 21
| No. | mol | GIV Gai3 FP | HCMV UL50-53 inh | Sa growth inh |
| --- | --- | --- | --- | --- |
| 17 | Nc1ccc(O)c(C(=O)O)c1 | 90.7 | -68.0 | 80.5 |
| 18 | CCOC(=O)c1[nH]c2sc(C)c(C)c2c1N | 82.6* | -13.6 | 83.0 |
| 19 | COC(=O)c1[nH]c2sc3c(c2c1N)CCCC3 | 20.1* | -1.5 | 69.2 |
| 20 | COC(=O)c1c(N)sc2c1CCCC2 | 106.6 | -8.1 | 108.6 |
| 21 | CCOC(=O)c1c(N)sc(C)c1C | . | -13.3 | . |

| No. | GIV-Gai FP conf | GIV-Gai AS conf |
| --- | --- | --- |
| 17 | . | . |
| 18 | 72.7 | 8984* |
| 19 | 38.9* | 8300* |
| 20 | . | . |
| 21 | . | . |

(continued)
| No. | mol | GIV Gai3 FP | HCMV UL50-53 inh | Sa growth inh |
| --- | --- | --- | --- | --- |
| 25 | O=C1Oc2ccccc2C2c3sc(=O)[nH]c3SC(c3ccccc3)C12 (stereo not drawn) | 112.2 | 7.4 | 86.4 |
| 26 | O=c1[nH]c2c(s1)C1c3ccccc3OC3CCCC(S2)C31 (stereo not drawn) | 71.7* | -141.5 | 27.4 |
| 27 | Nc1c(-c2nc(-c3ccc(F)cc3)cs2)c2ccccn2c1C(=O)c1ccc2c(c1)OCO2 | 74.9* | -17.7 | 104.7 |
| 28 | Cc1ccc(-c2csc(-c3c(N)c(C(=O)c4ccc5c(c4)OCO5)n4ccccc34)n2)cc1C | 89.1 | -16.5 | 100.8 |
| 29 | COc1ccc(Cl)cc1NC(=O)N1CCN(c2nc3ccccc3n3cccc23)CC1 | 83.3* | . | . |
| 30 | COc1ccc(OC)c(NC(=O)N2CCN(c3nc4ccccc4n4cccc34)CC2)c1 | 98.0 | . | . |
| 31 | Cc1ccc(/C=C2\SC(=S)N(CCCCC(=O)O)C2=O)o1 | . | -103.4 | 85.2 |
| 32 | CCN1C(=O)/C(=C\c2ccc(OC)cc2)C(C(=O)OC)=C1C | . | -12.0 | 78.2 |

| No. | GIV-Gai FP conf | GIV-Gai AS conf |
| --- | --- | --- |
| 25 | . | . |
| 26 | 39.8* | 30587 |
| 27 | 79.8 | 34447 |
| 28 | . | . |
| 29 | 77.3 | 24336 |
| 30 | . | . |
| 31 | . | . |
| 32 | . | . |

The list continues:
| No. | mol | GIV Gai3 FP | HCMV UL50-53 inh | Sa growth inh |
| --- | --- | --- | --- | --- |
| 33 | CCOC(=O)C1=C(C)N(CCOC)C(=O)/C1=C\c1ccc(N(C)C)cc1 | 63.7* | -81.0 | 89.3 |
| 34 | O=C(/C=C/Sc1nc2cc(Cl)c(F)cc2[nH]1)c1ccccc1 | 104.2 | -21.3 | 104.3 |
| 35 | Cc1ccc2nc(S/C=C/C(=O)c3ccccc3)[nH]c2c1 | 89.4 | -11.0 | 72.7 |
| 36 | Cn1nc(C(=O)N2CCN(c3ccc(Cl)cc3)CC2)c2c1-c1ccccc1SC2 | 100.1 | -15.5 | 110.6 |
| 37 | Cc1ccc2c(c1)-c1c(c(C(=O)N3CCN(c4cc(C)ccc4C)CC3)nn1C)CS2 | 42.2* | . | 92.7 |
| 38 | CCN(C(=O)Cn1c(-c2ccco2)nc2ccccc21)c1ccccc1 | . | -4.5 | 97.2 |
| 39 | COc1ccccc1-n1c(N)c(C(=O)NC2CCCCC2)sc1=S | 110.6 | . | . |
| 40 | CS(=O)(=O)N1CCC(n2cnc3ccc(F)cc3c2=O)CC1 | 105.4 | . | . |

| No. | GIV-Gai FP conf | GIV-Gai AS conf |
| --- | --- | --- |
| 33 | 85.3 | 19702* |
| 34 | . | . |
| 35 | 62.5 | 38936 |
| 36 | . | . |
| 37 | 36.2* | 26353 |
| 38 | . | . |
| 39 | . | . |
| 40 | . | . |

Continued.
| No. | mol | GIV Gai3 FP | HCMV UL50-53 inh | Sa growth inh |
| --- | --- | --- | --- | --- |
| 41 | CC(C)c1ccc(C#N)c(SCC(=O)Nc2ccccc2C(=O)O)n1 | 101.6 | . | . |
| 42 | Cc1ccc(Nc2cnn(-c3nc4ccccc4o3)c(=O)c2Cl)cc1F | 98.8 | -5.3 | 93.7 |
| 43 | Cc1ccc(-n2nc(C)c3c(C)c(CCC(=O)NCC4CCN(C5CCCC5)C4)c(C)nc32)cc1C (stereo not drawn) | 103.0 | . | 109.0 |
| 44 | COc1ccc(C(C2C(=O)N(c3ccccc3)N=C2C)C2C(=O)N(c3ccccc3)N=C2C)cc1OC (stereo not drawn) | 77.4* | . | . |
| 45 | COc1ccccc1C(C1C(=O)N(c2ccccc2)N=C1C)C1C(=O)N(c2ccccc2)N=C1C (stereo not drawn) | 114.5 | . | . |
| 46 | NC1=NC(=O)/C(=C/c2cccs2)S1 | 105.6 | -62.8 | 119.7 |
| 47 | CC(=O)NC1=NC(=O)/C(=C\c2cccs2)N1C | 80.3* | -75.8 | 104.3 |
| 48 | Cc1c(Nc2nc3nonc3nc2Nc2ccc(F)cc2)c(=O)n(-c2ccccc2)n1C | 105.8 | . | . |

| No. | GIV-Gai FP conf | GIV-Gai AS conf |
| --- | --- | --- |
| 41 | . | . |
| 42 | . | . |
| 43 | . | . |
| 44 | 61.6 | 15958* |
| 45 | . | . |
| 46 | . | . |
| 47 | 45.3* | 83504 |
| 48 | . | . |

More records follow:
| No. | mol | GIV Gai3 FP | HCMV UL50-53 inh | Sa growth inh |
| --- | --- | --- | --- | --- |
| 49 | Cc1c(Nc2nc3nonc3nc2Nc2ccccc2F)c(=O)n(-c2ccccc2)n1C | 125.9 | -6.7 | . |
| 50 | CC(=O)C1=NN(c2ccccc2)C(c2c[nH]c3ccccc23)N1c1ccc(C)cc1 (stereo not drawn) | 105.5 | . | . |
| 51 | CC1=NN(c2ccccc2)C(=O)C1(C)N (stereo not drawn) | 104.2 | -2.4 | 98.1 |
| 52 | CC1=NN(c2ccccc2)C(=O)C1(O)C1C(=O)c2ccccc2C1=O (stereo not drawn) | 73.6* | 36.5 | 75.4 |
| 53 | Cc1ccccc1Cc1c(C)nc2c(-c3nc(-c4ccccc4C)no3)cnn2c1C | 148.9 | -6.5 | . |
| 54 | CN(C)c1nc(N(C)C)nc(N(C)C#N)n1 | 108.9 | 12.9 | 93.7 |
| 55 | Cc1cc(/C=C2\SC(=Nc3ccccc3)NC2=O)c(C)n1-c1ccccc1 | 89.7 | -24.6 | . |
| 56 | CCc1ccc(N=C2NC(=O)/C(=C/c3cc(C)n(CC)c3C)S2)cc1 | 118.8 | -15.4 | 128.0 |

| No. | GIV-Gai FP conf | GIV-Gai AS conf |
| --- | --- | --- |
| 49 | 67.9 | 44712 |
| 50 | . | . |
| 51 | . | . |
| 52 | 56.4* | 4583* |
| 53 | . | . |
| 54 | . | . |
| 55 | 70.9 | 42209 |
| 56 | . | . |

The results go on.
| No. | mol | GIV Gai3 FP | HCMV UL50-53 inh | Sa growth inh |
| --- | --- | --- | --- | --- |
| 57 | CCOC(=O)COc1ccc2c(C#N)c3ccccn3c2c1 | 43.0* | -25.2 | . |
| 58 | N#Cc1c2ccc(OCC(N)=O)cc2n2ccccc12 | 103.1 | -17.1 | . |
| 59 | CCCn1c(=O)[nH]c2cc(-c3noc(C4CC4)n3)ccc21 | 103.6 | -33.9 | . |
| 60 | COc1ccc(-c2cc(=Nc3ccc(C)cc3C)c3cc(O)ccc3o2)cc1 | 74.6* | . | 112.5 |
| 61 | COc1ccc(-c2c/c(=N\O)c3cc(F)ccc3o2)cc1 | . | -19.7 | 95.2 |

| No. | GIV-Gai FP conf | GIV-Gai AS conf |
| --- | --- | --- |
| 57 | 64.3 | 44204 |
| 58 | . | . |
| 59 | . | . |
| 60 | 63.5 | 35576 |
| 61 | . | . |

Source: PubChem BioAssay
